Reference: patent publication US6602888B2, “Use of α1C specific compounds to treat benign prostatic hyperplasia” (Synaptic Pharmaceutical Corporation, priority 1992, dated 2003)

Amino acid sequences for entries named in this document (tags omitted). A change or cut given only in a name is not applied to a line headed by its entry.
UniProt P08913, whole entry: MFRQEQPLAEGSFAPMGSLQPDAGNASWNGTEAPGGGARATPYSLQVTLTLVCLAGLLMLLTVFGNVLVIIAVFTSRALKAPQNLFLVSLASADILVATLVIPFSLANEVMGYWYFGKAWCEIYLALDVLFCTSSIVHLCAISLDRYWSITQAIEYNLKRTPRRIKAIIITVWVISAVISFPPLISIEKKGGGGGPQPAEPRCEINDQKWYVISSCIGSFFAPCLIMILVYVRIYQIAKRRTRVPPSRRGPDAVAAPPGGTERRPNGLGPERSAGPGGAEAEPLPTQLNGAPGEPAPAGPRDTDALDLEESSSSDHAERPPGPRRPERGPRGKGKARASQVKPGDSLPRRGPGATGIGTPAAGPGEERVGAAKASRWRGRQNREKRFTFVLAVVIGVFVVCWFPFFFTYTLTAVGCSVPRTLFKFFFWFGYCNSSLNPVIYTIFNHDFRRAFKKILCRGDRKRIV
UniProt P35368, whole entry: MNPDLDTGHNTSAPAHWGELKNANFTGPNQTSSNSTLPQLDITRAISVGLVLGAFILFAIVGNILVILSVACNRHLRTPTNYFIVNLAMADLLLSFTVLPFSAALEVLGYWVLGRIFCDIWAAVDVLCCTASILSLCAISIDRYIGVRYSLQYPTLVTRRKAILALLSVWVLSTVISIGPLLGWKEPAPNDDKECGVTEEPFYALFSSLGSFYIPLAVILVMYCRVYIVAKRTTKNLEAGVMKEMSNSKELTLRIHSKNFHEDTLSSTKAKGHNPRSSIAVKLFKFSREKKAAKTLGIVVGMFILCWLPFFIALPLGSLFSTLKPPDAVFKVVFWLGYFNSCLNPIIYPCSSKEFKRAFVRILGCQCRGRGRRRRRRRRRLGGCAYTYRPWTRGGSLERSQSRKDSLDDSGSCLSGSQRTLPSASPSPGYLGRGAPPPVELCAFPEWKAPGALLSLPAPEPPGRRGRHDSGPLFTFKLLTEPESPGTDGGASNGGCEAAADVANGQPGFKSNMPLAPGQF
UniProt P28222, whole entry: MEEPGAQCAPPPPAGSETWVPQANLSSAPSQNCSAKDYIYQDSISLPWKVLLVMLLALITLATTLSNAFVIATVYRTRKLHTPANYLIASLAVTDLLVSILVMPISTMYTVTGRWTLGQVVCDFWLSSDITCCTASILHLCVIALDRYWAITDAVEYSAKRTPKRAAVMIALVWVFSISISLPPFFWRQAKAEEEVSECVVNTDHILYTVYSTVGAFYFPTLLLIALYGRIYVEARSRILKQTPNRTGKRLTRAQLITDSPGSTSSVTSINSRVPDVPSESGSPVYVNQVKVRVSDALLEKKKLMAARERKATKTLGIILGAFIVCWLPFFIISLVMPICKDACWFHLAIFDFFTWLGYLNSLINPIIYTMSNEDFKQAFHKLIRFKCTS
UniProt P28221: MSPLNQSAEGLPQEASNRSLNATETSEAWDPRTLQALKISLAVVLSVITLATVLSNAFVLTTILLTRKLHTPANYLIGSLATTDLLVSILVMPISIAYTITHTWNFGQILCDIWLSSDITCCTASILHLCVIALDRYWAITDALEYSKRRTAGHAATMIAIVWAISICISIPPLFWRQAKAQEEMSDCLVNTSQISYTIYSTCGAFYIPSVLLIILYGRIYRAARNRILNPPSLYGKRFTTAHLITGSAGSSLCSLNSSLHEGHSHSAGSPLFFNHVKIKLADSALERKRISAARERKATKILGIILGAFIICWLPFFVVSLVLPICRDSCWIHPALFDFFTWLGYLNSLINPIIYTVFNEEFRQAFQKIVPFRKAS
UniProt P28566: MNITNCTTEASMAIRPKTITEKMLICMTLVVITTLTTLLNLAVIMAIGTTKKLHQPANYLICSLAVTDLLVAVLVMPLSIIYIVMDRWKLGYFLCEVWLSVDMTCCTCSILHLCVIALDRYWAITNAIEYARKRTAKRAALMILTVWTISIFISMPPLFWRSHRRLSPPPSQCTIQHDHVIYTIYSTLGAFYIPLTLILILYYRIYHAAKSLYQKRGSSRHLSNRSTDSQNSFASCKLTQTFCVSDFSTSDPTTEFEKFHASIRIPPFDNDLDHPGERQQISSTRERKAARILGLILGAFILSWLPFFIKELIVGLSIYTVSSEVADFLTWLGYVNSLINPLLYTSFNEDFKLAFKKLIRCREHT

Key:
[1] = molecular target: human α2A adrenergic receptor (Homo sapiens, UniProt P08913); assay: Competition binding, [3H]rauwolscine, α2A receptor; details: Table 2, cloned human receptor
[2] = molecular target: human α1B adrenergic receptor (Homo sapiens, UniProt P35368); assay: Radioligand binding, [3H]prazosin, cloned human α1B adrenergic receptor
human 5HT1Dβ receptor = molecular target: T1, human 5HT1Dβ receptor (Homo sapiens, UniProt P28222); assay: [3H]serotonin competition binding, 5HT1Dβ receptor; details: Table 2, cloned human receptor; read-out: Serotonin 5HT1Db (pK1)
T1 construct: host or cells: LM(tk-) clonal cell line Ltk-11

human 5HT1Dα receptor = molecular target: T2, human 5HT1Dα receptor (Homo sapiens, UniProt P28221); assay: [3H]serotonin competition binding, 5HT1Dα receptor; details: Table 2, cloned human receptor; read-out: Serotonin 5HT1Da (pK1)
T2 construct: host or cells: LM(tk-) clonal cell line Ltk-8-30-84

[3] = system: Sprague-Dawley normotensive rats; details: rat; for BP fall / orthostatic fall in BP: i.v.; for orthostatic fall in BP: second tilt
human 5HT1E receptor = molecular target: T3, human 5HT1E receptor (Homo sapiens, UniProt P28566); assay: [3H]serotonin competition binding, 5HT1E receptor; details: Table 2, cloned human receptor; read-out: Serotonin 5HT1E (pK1)
T3 construct: host or cells: LM(tk-) clonal cell line 5HT1E-7

human 5HT1F receptor = molecular target: T4, human 5HT1F receptor (Homo sapiens, UniProt P30939); assay: [3H]serotonin competition binding, 5HT1F receptor; details: Table 2, cloned human receptor; read-out: Serotonin 5HT1F (pK1)
T4 construct: host or cells: LM(tk-) clonal cell line L-5-HT1F
T4 sequence (P30939 1-366): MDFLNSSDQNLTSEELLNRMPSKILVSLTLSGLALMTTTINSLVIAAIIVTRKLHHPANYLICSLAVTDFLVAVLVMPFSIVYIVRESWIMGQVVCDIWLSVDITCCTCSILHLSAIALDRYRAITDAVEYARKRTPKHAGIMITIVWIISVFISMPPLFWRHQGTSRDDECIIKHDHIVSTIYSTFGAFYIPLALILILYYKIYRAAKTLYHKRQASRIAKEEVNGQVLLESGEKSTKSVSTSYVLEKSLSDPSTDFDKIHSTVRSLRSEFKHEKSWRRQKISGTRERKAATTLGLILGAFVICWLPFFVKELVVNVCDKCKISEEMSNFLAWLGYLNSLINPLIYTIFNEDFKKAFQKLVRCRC

O=C(CCCN1CCC(NC(=O)c2ccccc2)CC1)c1ccc(Cl)cc1 [Compound 7]
Alpha-2 Adrenergic a2a (pK1) [1]: 6.19

COC(=O)C1=C(C)NC(C)=C(C(=O)OCCCN2CCC(c3ccccc3)(c3ccccc3)CC2)C1c1ccc([N+](=O)[O-])cc1.Cl (centres unmarked) [Compound 8, 2,6-Dimethyl-4-(4-nitrophenyl)-1,4-dihydropyridine-3,5-dicarboxylic acid [3-(4,4-diphenylpiperidin-1-yl)propyl] ester methyl ester hydrochloride]
Human Alpha-1 Adrenergic (pK1) a1B ([2]; Table 1, cloned human receptor): 7.07
Alpha-1 Adrenergic a1B (pK1) ([2]; Table 2, cloned human receptor): 7.07

COc1cc2nc(N3CCN(C(=O)C4CCCO4)CC3)nc(N)c2cc1OC (centres unmarked) [Terazosin, 2 [4-(Tetrahydro-2-furoyl)piperazinyl]-4-amino-6,7-dimethoxyquinazoline hydrochloride]
Ki (human 5HT1Dβ receptor): > 1 µM
Ki (human 5HT1Dα receptor): > 1 µM
BP fall ([3]; Dose 1, 10 ug/kg): +
orthostatic fall in BP ([3]; Dose 1, 10 ug/kg): +
BP fall ([3]; Dose 2, 100 ug/kg): ++
orthostatic fall in BP ([3]; Dose 2, 100 ug/kg): ++ or +++
BP fall ([3]; Dose 3, 1000 ug/kg): +++
orthostatic fall in BP ([3]; Dose 3, 1000 ug/kg): ++ or +++
orthostasis (Table 3) ([3]; doses 10, 100, 1000 ug/kg): consistently cause orthostasis at the lowest dose
Ki (human 5HT1E receptor): > 10 µM
Ki (human 5HT1F receptor): > 10 µM

Counter-ions that a name gives are not always drawn. Like-named read-outs stand apart in the source and are kept apart here.
